Values quoted from earlier work, collected in article PMC11106675, “Synthesis of 1,4-azaphosphinine nucleosides and evaluation as inhibitors of human cytidine deaminase and APOBEC3A” (Beilstein Journal of Organic Chemistry, 2024).

Legend:
[1] = in solution (water)
CDA = settings: read-out: inhibition constant (Ki)

SMILES: NP1(=O)C=CN([C@@H]2O[C@H](CO)[C@@H](O)[C@H]2O)C(=O)N1 (some centres unmarked)
- stability in solution [1]: unstable in solution
- Ki (CDA): 0.9 nM
